Values of other authors in publication PMC2999882 (Molecular pharmacology, 2008).

System: α4β2 tyrosine to phenylalanine mutant
Conditions: cited from earlier work

COc1cc(O)ccc1/C=C1\CCCN=C1c1cccnc1 [4OH-GTS-21]
fold increase in efficacy by the tyrosine to phenylalanine mutation in α4β2: 200 fold
